Values of other authors in PMC3341666 (Biochemistry, 2009).

The chains behind the UniProt entries cited, without tags or fusion partners. Residues count along the entry.
UniProt P07288, 25-261: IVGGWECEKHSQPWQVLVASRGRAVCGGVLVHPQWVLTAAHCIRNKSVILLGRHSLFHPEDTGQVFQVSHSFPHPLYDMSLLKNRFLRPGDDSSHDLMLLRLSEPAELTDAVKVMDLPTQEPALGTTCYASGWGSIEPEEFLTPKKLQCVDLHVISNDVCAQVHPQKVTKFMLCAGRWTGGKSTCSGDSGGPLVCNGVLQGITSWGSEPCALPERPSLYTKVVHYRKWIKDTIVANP

Target: Prostate-Specific Antigen (PSA) (Homo sapiens, UniProt P07288)
Details: read-out: Ki for PSA; previous study

Z-SSKL(boro)L (SSKLL)
Ki: 65 nM
